Screening data: PubChem BioAssay, Broad Institute
An excerpt weighted towards active compounds, which were near 0.73% of everything screened.
XiGFP reactiv – activators of inactive X chromosome reactivation, primary screen, imaging, XiGFP fibroblasts, GFP high-content imaging, set 2 | XiGFP mouse fibroblasts, % GFP-positive cells imaging, 3 d; cells co-treated with 5-aza-dC sensitizer; scaled so ellipticine positive control = 100% | activation, % at 7.58 µM | 360,000 tested, 0.055% active;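 active means mean normalized replicate activation at least 10% and every replicate at or above 10%; inconclusive means only one of the two criteria met; inactive means mean below 10% and not all replicates reach 10%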;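 further: 0% = median of on-plate neutral control wells and 100% = ellipticine 6 µM median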
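assay system = SV40-immortalized XiGFP fibroblast cells, line 68-5-11 | buffer or medium = DMEM plus 5-aza-dC sensitizer | doses = single-point pinned compound dosing | times = 3-day compound exposure, then 15 min fixation at room temperature | benchmarks = positive control ellipticine, 6 µM final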
Yeast UUG start – yeast start codon fidelity modulation; AID 602363; activity score, % at 18.7 µM; S. cerevisiae UUG-firefly luciferase reporter, luminescence/redox ratio; 0.13% of 350,000 active;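 active means replicate mean at a twofold rise or more, about +100% in these data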;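 further: firefly luciferase made from a UUG start codon reports start codon fidelity; reporter light over untreated wells divided by growth signal over untreated wells; some hits fall short of that in this replicate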
RAD54 inh – inhibitors of human RAD54 branch migration, primary screen, biochemical, fluorescence, single point | RAD54 Holliday junction branch migration, FAM/BHQ fluorescence | inhibition, % at 10.4 µM | 360,000 tested, 0.14% active | AID 602329, 2012;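 active means mean normalized replicate activity at least 40 and at least half of replicates scoring 40 or more; inconclusive means only one of the two criteria met; inactive means mean below 40 and under half of replicates reaching 40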;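 further: 0% = median of neutral control wells and 100% = median of positive control wells; inhibitors cause a drop in the FAM fluorescence signal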
E-selectin induc – E-selectin induction in HUVECs, primary screen, imaging, HUVEC, immunofluorescence imaging, single point. normalized: neutral wells 0, TNF-alpha wells 100. activation, % at 7.58 µM. 260,000 tested, 0.37% active;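 active means mean E-selectin-positive cell signal at least 10% of the positive control, reached in at least 60% of replicates, without over 20% cell loss; inconclusive means no rule given, readout overlaps actives, possibly toxicity-flagged; inactive means the rest, including those meeting only one limit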
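Assay system: HUVEC primary endothelial cells. Input: 3,000 HUVEC seeded per well. Doses: one compound dose added by pin transfer. Read-out basis: % PE-positive cells. Benchmarks: TNF-alpha high, DMSO low. Detection: immunofluorescence imaging. Buffer or medium: EGM-2, gelatin.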
RAD52 anneal inh – RAD52 DNA annealing inhibitors, primary screen, biochemical, FRET, single point, set 2. inhibition, % at 18.7 µM. recombinant RAD52 DNA annealing, FRET fluorescence. AID 651710, 2012. 360,000 tested, 0.46% active. DNA repair protein RAD52 homolog (Homo sapiens), P43351;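 active means every replicate showing at least 50% inhibition; inconclusive means mean inhibition at least 50% but not in every replicate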
RAD52 DNA ctr – DNA-binding compounds via dye displacement, dose response, artefact control for RAD52 inhibitor project, biochemical, fluorescence polarization, cherry-pick | shares compounds with RAD52 anneal inh | Salmon sperm DNA/acridine orange FP displacement | AC50, µM | 1,000 tested, 8% active | AID 652128, 2013;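 active means fitted half-maximal concentration for signal loss at or below twice the highest dose tested, in every separate run, actives reach about 64 µM in these data; inconclusive means runs disagree, or flat partial signal loss, or poor fit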
Numbers without * were called inactive; i = inactive; ? = inconclusive; · = no result.

By UniProt entry, the sequences of proteins in these tests, tags left out.
DNA repair protein RAD52 homolog (Homo sapiens), P43351, UniProt P43351, whole entry, looked up: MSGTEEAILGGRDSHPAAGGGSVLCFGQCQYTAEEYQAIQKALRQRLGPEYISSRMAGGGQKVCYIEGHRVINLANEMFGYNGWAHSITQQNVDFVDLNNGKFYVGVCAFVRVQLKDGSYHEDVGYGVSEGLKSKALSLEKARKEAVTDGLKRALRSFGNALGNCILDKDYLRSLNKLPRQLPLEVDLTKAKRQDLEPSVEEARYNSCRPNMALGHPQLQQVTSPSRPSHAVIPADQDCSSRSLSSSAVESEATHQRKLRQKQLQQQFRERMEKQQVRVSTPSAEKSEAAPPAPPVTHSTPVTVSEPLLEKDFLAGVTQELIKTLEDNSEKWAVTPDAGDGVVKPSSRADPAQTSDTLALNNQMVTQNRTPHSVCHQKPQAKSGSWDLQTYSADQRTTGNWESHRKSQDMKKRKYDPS

Labels used below: A = XiGFP reactiv; B = Yeast UUG start; C = RAD54 inh; D = E-selectin induc; E = RAD52 anneal inh; F = RAD52 DNA ctr
1: O=C(C[C@@H]1CC[C@@H]2[C@H](COC[C@H](O)CN2S(=O)(=O)c2ccc(Cl)cc2)O1)NCCN1CCCC1
  A = 0	B = -3	C = 3	D = 0	E = 28	F = ·
2: CN1CCN(CC(O)COc2ccc(C34CC5CC(CC(C5)C3)C4)cc2)CC1 (stereo unspecified)
  A = 0	B = -7	C = 26	D = 11	E = 56*	F = i
3: Cc1noc(C)c1S(=O)(=O)N(C)C[C@@H]1Oc2ccc(NC(=O)CCN3CCOCC3)cc2CC(=O)N([C@@H](C)CO)C[C@@H]1C
  A = 0	B = ·	C = ·	D = -9	E = -7	F = ·
4: CSC1SCC2C(=O)N(C)C(C(C)C)C(=O)OCC(NC(=O)c3cnc4ccccc4n3)C(=O)NC(C)C(=O)N(C)C1C(=O)N(C)C(C(C)C)C(=O)OCC(NC(=O)c1cnc3ccccc3n1)C(=O)NC(C)C(=O)N2C (stereo unspecified)
  A = 0	B = ·	C = ·	D = -1	E = 72*	F = i
5: CNC[C@@H]1Oc2ccc(NC(=O)CCCN(C)C)cc2CC(=O)N([C@H](C)CO)C[C@H]1C
  A = 0	B = ·	C = ·	D = 2	E = -10	F = ·
6: Cc1ccc2c(c1)c1c3n2CCN(CC(N)=O)C3CCC1 (stereo unspecified)
  A = 0	B = 2	C = 4	D = ·	E = -7	F = ·
7: Cc1ccc2c(c1)c1c3n2CCN(CC(O)CNC(C)C)C3CCC1 (stereo unspecified)
  A = 0	B = -27	C = ?	D = 0	E = 82*	F = i
8: Cc1csc(N2CCN(c3cc4c(cc3Cl)nc(-c3ccncc3)n4CCCN3CCCC3)CC2)n1
  A = 0	B = 50	C = 10	D = 0	E = 98*	F = i
9: O=C(C[C@H]1C=C[C@H](NS(=O)(=O)c2cccc(F)c2)[C@@H](CO)O1)NCc1ccc2c(c1)OCO2
  A = 0	B = -3	C = -2	D = -1	E = -7	F = ·
10: CC(=O)Nc1ccc(CNc2nc(NC(C)C)nc3cc(-c4ccccc4)sc23)cc1
  A = 1	B = ·	C = -7	D = 33*	E = 97*	F = i

Additional entries:
Labels used below: A = XiGFP reactiv; B = Yeast UUG start; C = RAD54 inh; D = E-selectin induc; E = RAD52 anneal inh; F = RAD52 DNA ctr
11: COc1ccccc1CNc1nc(NCc2ccccc2OC)c2sccc2n1
  A = 0	B = 1	C = 0	D = -1	E = -10	F = ·
12: COc1ccccc1CNc1nc(NCc2ccc(NC(C)=O)cc2)c2sccc2n1
  A = 0	B = -10	C = 4	D = 0	E = 51*	F = i
13: C=CCNc1nc(NCc2ccc(NC(C)=O)cc2)c2sc(-c3ccccc3)cc2n1
  A = 1	B = -8	C = -8	D = 1	E = -32	F = ·
14: C[C@H]1CN([C@@H](C)CO)C(=O)c2cc(C#Cc3ccccn3)cnc2O[C@H]1CN(C)C(=O)c1ccccn1
  A = 0	B = -3	C = -3	D = 0	E = -41	F = ·
15: c1ccc2c(c1)C1=NCCN1c1ccccc1-2
  A = 0	B = ·	C = ·	D = 3	E = 82*	F = ?
16: CCN(Cc1ccccc1)S(=O)(=O)c1ccc(C(=O)N(CCCN(C)C)c2nc3cc(C)cc(C)c3s2)cc1
  A = 0	B = -4	C = -3	D = ·	E = -13	F = i
17: CCOc1cccc2sc(N(CCCN(C)C)C(=O)c3ccc(S(=O)(=O)N(CC)Cc4ccccc4)cc3)nc12
  A = 0	B = 8	C = -4	D = ·	E = 65*	F = i
18: Cc1cccc2sc(N(CCCN(C)C)C(=O)c3ccc(Cl)s3)nc12
  A = 0	B = -5	C = 10	D = ·	E = 57*	F = i
19: CCOc1cccc2sc(N(CCCN(C)C)C(=O)c3ccc(C(=O)c4ccccc4)cc3)nc12
  A = 0	B = 12	C = 35	D = -1	E = 52*	F = i
20: Cc1cccc2sc(N(CCCN(C)C)C(=O)c3ccco3)nc12
  A = 0	B = -10	C = 20	D = 0	E = 20	F = ·

Next part
Labels used below: A = XiGFP reactiv; B = Yeast UUG start; C = RAD54 inh; D = E-selectin induc; E = RAD52 anneal inh; F = RAD52 DNA ctr
21: CN(C)CCCN(C(=O)c1ccc(C(=O)c2ccccc2)cc1)c1nc2c(F)cccc2s1
  A = 0	B = -18	C = 21	D = ·	E = 36	F = ·
22: CCOc1cccc2sc(N(CCCN(C)C)C(=O)c3ccc(S(=O)(=O)N(C)Cc4ccccc4)cc3)nc12
  A = 0	B = 3	C = 10	D = ·	E = 42	F = ·
23: CC(C)NC[C@H]1[C@H](c2ccc(C3=CCCCC3)cc2)[C@@H](CO)N1C(=O)NC(C)C
  A = 0	B = -1	C = 1	D = 0	E = -23	F = ·
24: CCC(=O)Nc1ccc2c(c1)OC[C@H](C)N(Cc1cncnc1)C[C@H](C)[C@@H](OC)CN(C)C2=O
  A = 1	B = ·	C = ·	D = 0	E = 3	F = ·
